According to PMC8167055:

Biological target: LC3B fused with mCherry (microtubule-associated protein light chain 3) (human) (UniProt Q9GZQ8)
Test: ELISA; plate coated with 5 μg/ml mCherry-LC3B in PBS, blocked with BSA; serial dilutions of TPPP/p25 forms or SYN; detected by TPPP/p25 or SYN antibodies; apparent Kd from hyperbola with a single binding site

**Q.** With “alpha-synuclein (SYN), human recombinant (from UniProt P37840 1-140) (natural protein)” as the substance, how does the Kd read?
**A.** The Kd was 1620 nM.
